# Results: patent US20250188188A1 (DIANTHUS THERAPEUTICS OPCO, published 2025)
# T1: active human C1s purified from human serum (CompTech, Tyler, TX, catalog number A104) (human, UniProt P09871 16-437; P09871 438-688)
# T1 sequence 1: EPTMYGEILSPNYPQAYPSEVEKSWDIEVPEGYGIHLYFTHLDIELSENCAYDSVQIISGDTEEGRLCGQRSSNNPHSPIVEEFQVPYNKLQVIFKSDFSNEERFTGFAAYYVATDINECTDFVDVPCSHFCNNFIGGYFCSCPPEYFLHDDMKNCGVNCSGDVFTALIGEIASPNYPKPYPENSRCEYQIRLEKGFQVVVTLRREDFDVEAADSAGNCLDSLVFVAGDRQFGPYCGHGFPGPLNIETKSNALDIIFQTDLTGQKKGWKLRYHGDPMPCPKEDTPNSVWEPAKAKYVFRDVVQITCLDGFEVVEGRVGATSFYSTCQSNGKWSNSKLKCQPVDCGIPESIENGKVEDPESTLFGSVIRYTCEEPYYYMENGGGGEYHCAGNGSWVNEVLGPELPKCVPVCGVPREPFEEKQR
# T1 sequence 2: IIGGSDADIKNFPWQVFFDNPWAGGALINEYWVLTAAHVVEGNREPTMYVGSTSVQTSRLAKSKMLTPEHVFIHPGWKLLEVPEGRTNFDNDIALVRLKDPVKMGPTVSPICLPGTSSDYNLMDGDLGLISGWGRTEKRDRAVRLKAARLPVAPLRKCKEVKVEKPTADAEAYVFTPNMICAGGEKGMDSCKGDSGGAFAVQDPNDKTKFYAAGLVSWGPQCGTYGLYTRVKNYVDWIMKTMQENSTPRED
# Experiments:
# [1] = target: T1, active human C1s purified from human …; assay: cell-based or functional assay
# [2] = target: T1, active human C1s purified from human …; assay: cell-based or functional assay; remark: listed apart in the source
# [3] = target: T1, active human C1s purified from human …; assay: cell-based or functional assay; remark: listed apart in the source
# [4] = target: T1, active human C1s purified from human …; assay: SPR, antibody captured via anti-human Fc, C1s in solution
"IC50, inhibition of Wieslab complement classical pathway (C5b-9 ELISA), 1% human serum [3]",Kd [4],koff [4],kon [4],Binder,"IC50, inhibition of C3b deposition on sensitized hRBCs in 7.5% human serum (flow cytometry), Donor A [1]","IC50, inhibition of C3b deposition on sensitized hRBCs in 7.5% human serum (flow cytometry), Donor B (1) [1]","IC50, inhibition of C3b deposition on sensitized hRBCs in 7.5% human serum (flow cytometry), Donor B (2) [1]","IC50, inhibition of sensitized hRBC lysis in 25% human serum, Donor 1 [2]","IC50, inhibition of sensitized hRBC lysis in 25% human serum, Donor 2 [2]","IC50, inhibition of sensitized hRBC lysis in 25% human serum, Donor 3 [2]"
4.1 nM,,,,"IgG4-MAB17 (MAB17 in human IgG4 with S228P, L235E and YTE) (antibody, V domains shown) VH: QVQLVQSGAEVKKPGASVKVSCKVSGDTLTELSMHWVRQAPGKGLEWMGTFDPEEGETIYAQKFQGRVTMTEDTSTDTAYMELSSLRSEDTAVYYCVTEGEAGRPFDAWGQGTLVTVSS VL: [about 100 residues with changes cut from this listing]",40.7 nM,112 nM,202 nM,11 nM,20.5 nM,3.8 nM
,6 nM,0.00122 s⁻¹,204000 M⁻¹ s⁻¹,"MAB13 (antibody, V domains shown, IgG) VH: QVQLVQSGAEVKKPGASVKVSCKVSGDTLTELSMHWVRQAPGKGLEWMGTFDPEEGETIYAQKFQGRVTMTEDTSTDTAYMELSSLRSEDTAVYYCVTEGLAGFPFDIWGQGTLVTVSS VL: [about 100 residues cut from this listing]",,,,,,
,6.18 nM,0.000657 s⁻¹,106000 M⁻¹ s⁻¹,"MAB19 (antibody, V domains shown, IgG) VH: QVQLVQSGAEVKKPGASVKVSCKVSGDTLTELSMHWVRQAPGKGLEWMGTFDPEEGETIYAQKFQGRVTMTEDTSTDTAYMELSYLRSEDTAVYYCVTEGLAGIPFDSWGQGTLVTVSS VL: [about 100 residues cut from this listing]",,,,,,
